# AlphaSeq binding of Ab-14 light chain variants to a spike HR2 peptide

Binding partner: SARS-CoV-2 spike HR2 peptide, sequence PDVDLGDISGINAS.

Parent: Ab-14, a human scFv built as VH, a 15-residue (Gly4Ser)3 linker, VL. Only the CDRs of the light chain vary.
VH: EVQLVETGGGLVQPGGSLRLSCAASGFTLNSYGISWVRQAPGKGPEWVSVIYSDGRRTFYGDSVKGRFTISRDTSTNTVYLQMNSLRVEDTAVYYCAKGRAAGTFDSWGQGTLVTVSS
VL: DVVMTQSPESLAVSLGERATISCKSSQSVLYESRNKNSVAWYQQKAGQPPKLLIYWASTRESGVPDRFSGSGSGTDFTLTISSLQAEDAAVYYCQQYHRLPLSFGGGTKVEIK

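The parent was found by panning a naive human phage display library on the peptide. This is the validation round: designs drawn from the data on random variants, tested in the same kind of assay. Group labels follow the data file (Ctrl: baseline library sampled from a position-specific scoring matrix, with some repeated check sequences; GP: Gaussian process model; HC: hill climbing; Gen: genetic algorithm; Gibbs: Gibbs sampling; a sequence that several methods proposed may carry one label only). Affinity was read by AlphaSeq, a pooled yeast mating assay with surface-displayed partners. Mating (16 h, 30 °C) was followed by selection of diploids and sequencing of their barcodes. Read counts were normalised to the haploid input and turned into Kd by a linear fit to BCL2-family pairs of known affinity, for each replicate. Mating was done six times.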

Each variant is given by its three light chain CDRs, as the data file delimits them; those of the parent are KSSQSVLYESRNKNSVA, WASTRES, QQYHRLPLS.
Variants here have at most six changes.
The read-out is the apparent dissociation constant on a log10 scale (nM): the lower, the stronger.
The mean shown is taken over the replicates in which the pair was detected.
Where no diploid with the target was found in that replicate, the entry reads "nd": below detection, most likely a poor binder, though not proof of it.
The list is sorted by this average, lowest first, undetected variants last.

- KLQQSVLYESRNKNSVA / DASQRES / QQYHRLPLS [GP_Gen]: -0.24, -0.21, -0.33, -0.34, -0.35, -0.30 (mean -0.29)
- KFSQSDLYESRNKNSVA / DASTRES / QQYHRLPLS [GP_Gen]: -0.32, -0.04, -0.19, -0.37, -0.27, -0.14 (mean -0.22)
- KVSQQDLYESRNKNSVA / EASTRES / QQYHRLPLS [GP_Gen]: -0.14, -0.02, -0.32, -0.39, -0.02, -0.03 (mean -0.15)
- KVSQEVLFESRNKNSVA / DASTRES / QQYHRLPLS [GP_HC]: -0.02, -0.26, -0.11, -0.30, -0.29, 0.09 (mean -0.15)
- KFSQSVLYESRTKNSVA / NATTRET / QQYHRLPLS [GP_HC]: -0.08, -0.09, -0.12, -0.16, -0.17, 0.08 (mean -0.09)
- KVSQKNLYESRMKNSVA / NASLRES / QQYHRLPLS [GP_Gibbs]: 0.14, -0.01, -0.09, -0.07, -0.16, 0.07 (mean -0.02)
- KLSFSWLYESRNKNSVA / NASTRES / QQYHRLPLS [GP_Gen]: 0.02, 0.04, -0.07, -0.13, -0.13, 0.16 (mean -0.02)
- KQSGSQLCESRNKNSVA / DASTRES / QQYHRLPLS [GP_HC]: 0.06, 0.03, -0.10, 0.06, 0.02, 0.09 (mean 0.03)
- KSSQSVLDQSRNKNSVA / DASQRES / QQYHRLPLS [GP_HC]: 0.16, 0.18, -0.12, -0.32, 0.12, 0.19 (mean 0.04)
- KLSQSVLYESREKNSVA / DASTRES / QQYHRLPLS [GP_Gen]: 0.26, 0.08, 0.32, -0.05, -0.24, -0.01 (mean 0.06)
- KFQQSVGYQTRNKNSVA / EASTRES / QQYHRLPLS [GP_Gibbs]: 0.16, 0.20, 0.13, -0.21, 0.14, 0.09 (mean 0.09)
- KSMQSVLAESPNKNSVA / QASTRES / QQYHRLPLS [Ctrl]: 0.26, 0.06, -0.04, 0.05, 0.20, 0.21 (mean 0.12)
- KLSQSWLYESRMKNSVA / GASTRES / QQYHRLPLS [GP_HC]: 0.31, 0.44, 0.04, -0.02, 0.37, 0.13 (mean 0.21)
- KFSQSVLYESTTWNSVA / NASTRES / QQYHRLPLS [GP_HC]: 0.26, 0.44, 0.14, -0.01, 0.23, 0.55 (mean 0.27)
- KLSQSMLYESRNKNSVA / NASTRES / QAYHRLPLS [GP_Gen]: 0.25, 0.18, 0.33, 0.08, 0.40, 0.42 (mean 0.28)
- KQSLSVLFESRNKNSVA / NASTRES / QQYHRLPLS [GP_HC]: 0.72, 0.32, 0.34, 0.15, 0.12, 0.43 (mean 0.35)
- KLSQSQLYESRNKNSVA / NASTRES / QAYHRLPLS [GP_Gen]: 0.58, 0.26, 0.25, 0.46, 0.54, 0.50 (mean 0.43)
- KLEQSSNYESRNKNSVA / NASTRES / QQYHRLPLS [GP_HC]: 0.28, 1.14, 0.15, 0.70, 0.19, 0.50 (mean 0.49)
- KLSQSPLYESRNKNSVA / NASTRLS / QQYHRLPLS [GP_Gen]: 0.41, 0.51, 0.66, 0.55, 0.24, 1.74 (mean 0.69)
- KLSQSVLYEGRNKNSVA / NASTRMS / QQYHRLPLS [GP_Gibbs]: 0.57, 0.57, 0.80, 1.01, 0.67, 0.82 (mean 0.74)
- KLSQSVDYESRNKNSVA / EASTREV / QQYHRLPLS [GP_Gen]: 0.97, 0.91, 0.42, 0.93, 0.73, 1.34 (mean 0.88)
- KSSQSVLYESRNKNSVA / GASTRES / QEYHRLPLS [Ctrl]: 0.68, 1.12, 0.61, 0.78, 1.35, 0.76 (mean 0.88)
- KSSQLVLGESDNKNSVA / WASTRES / QQYHRLPLS [Ctrl]: 1.12, 1.28, 0.97, 1.07, 1.61, 1.31 (mean 1.23)
- KSAQGVLYESRVKNSVA / GASTRES / QQYHRLPLS [GP_HC]: 1.87, 1.31, 1.02, 0.91, 0.95, 1.52 (mean 1.26)
- KSSQKVNYESWDHNSVA / WASMRES / QQYHRLPLS [Ctrl]: 1.94, 2.30, 1.90, 1.54, 1.46, 1.73 (mean 1.81)
- KSSQNVLYESRAKNSVA / MASTRES / QQYHRLPLS [Ctrl]: 1.48, 1.87, 2.41, 1.11, 1.62, 2.83 (mean 1.89)
- KSSQSVLYESRNINSVA / WASTREF / QQYHRLPLS [Ctrl]: 2.05, 2.97, 1.97, 1.30, 1.67, 1.97 (mean 1.99)
- KSSQSVLYESRNKYSVA / SASTRES / QQYHRLPLS [Ctrl]: nd, 2.13, nd, 1.79, 1.71, 2.32 (mean 1.99)
- KSSESWLYEWRNKNSVA / WASTRES / QQYHRLPLV [Ctrl]: nd, nd, nd, nd, nd, 2.42
- KSSQSVLYESRNKNSVA / WASTRES / SQYHRLPLS [Ctrl]: nd, nd, nd, nd, nd, 2.65
- KRSQSVLYESRNKNSVA / WASTRES / QQYHRLPLD [Ctrl]: nd, 2.58, 2.05, 4.85, 2.83, nd (mean 3.08)
- KSSQSVLYESRNKNWVA / YASTRES / QQYHRLPLS [Ctrl]: nd, nd, nd, nd, nd, nd
- KLSQSVLYESRNKYSVA / WASTRES / QQYHRLVLS [Ctrl]: nd, nd, nd, nd, nd, nd
- KVSQSEPYESRNKNSVA / NASQRES / QQYHRLPLS [GP_Gen]: nd, nd, nd, nd, nd, nd
- KSRQSVLYESRNKNSVA / WASTRED / QQYHRLVLS [Ctrl]: nd, nd, nd, nd, nd, nd

Picked from the list: the 4 lowest averages where every replicate gave a value.

{"CDR-L1": "KLQQSVLYESRNKNSVA", "CDR-L2": "DASQRES", "CDR-L3": "QQYHRLPLS", "group": "GP_Gen", "log10 Kd (nM) by replicate": "-0.24, -0.21, -0.33, -0.34, -0.35, -0.30", "log10 Kd (nM), mean": "-0.29"}
{"CDR-L1": "KFSQSDLYESRNKNSVA", "CDR-L2": "DASTRES", "CDR-L3": "QQYHRLPLS", "group": "GP_Gen", "log10 Kd (nM) by replicate": "-0.32, -0.04, -0.19, -0.37, -0.27, -0.14", "log10 Kd (nM), mean": "-0.22"}
{"CDR-L1": "KVSQQDLYESRNKNSVA", "CDR-L2": "EASTRES", "CDR-L3": "QQYHRLPLS", "group": "GP_Gen", "log10 Kd (nM) by replicate": "-0.14, -0.02, -0.32, -0.39, -0.02, -0.03", "log10 Kd (nM), mean": "-0.15"}
{"CDR-L1": "KVSQEVLFESRNKNSVA", "CDR-L2": "DASTRES", "CDR-L3": "QQYHRLPLS", "group": "GP_HC", "log10 Kd (nM) by replicate": "-0.02, -0.26, -0.11, -0.30, -0.29, 0.09", "log10 Kd (nM), mean": "-0.15"}

In the paper, a design with two or fewer of six values counts as a poor binder.
Background: pairings of all light chain designs with three empty control strains gave a value in 4% of cases (median 2.64, 5th percentile 1.59). Values in that range, when seen in few replicates, are hard to tell from nonspecific mating.
The range of this assay differs from that of the first round, and the authors advise against merging the two.
The parent sequence was in this pool as ten entries: three were never detected, three once, and four in most replicates, with averages from 0.34 to 2.37.

From the AlphaSeq antibody data of Li et al. 2023 (doi:10.1038/s41467-023-39022-2), copy in the FLAb collection.